Source: PubChem BioAssay AID624467 (The Scripps Research Institute Molecular Screening Center, 2012)
The list shows a part of the results, in another mix than the full data. Active and inactive are the calls of the source.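 Rule for the calls: active = activation above the mean activation of all test compounds in the run plus 3 SD (cut at about 38% in these data); inactive = the rest.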

Amino acid sequences for entries named in this document (tags omitted). A change or cut given only in a name is not applied to a line headed by its entry.
UniProt Q96RJ0: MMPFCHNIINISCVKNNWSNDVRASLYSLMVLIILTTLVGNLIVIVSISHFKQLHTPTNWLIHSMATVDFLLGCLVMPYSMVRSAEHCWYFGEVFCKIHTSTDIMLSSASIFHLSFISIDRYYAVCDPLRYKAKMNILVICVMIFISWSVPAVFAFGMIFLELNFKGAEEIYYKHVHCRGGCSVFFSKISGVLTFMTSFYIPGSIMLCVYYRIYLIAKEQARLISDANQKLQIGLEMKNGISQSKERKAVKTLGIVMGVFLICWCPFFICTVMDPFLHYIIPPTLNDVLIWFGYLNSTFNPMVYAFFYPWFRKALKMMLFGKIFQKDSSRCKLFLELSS

Molecular target: Trace amine-associated receptor 1 (Homo sapiens) (UniProt Q96RJ0)
Experiment: activators of TAAR1 calcium mobilization – Fluo-8 calcium fluorescence, CHO RD-HGA16 cells, primary screen (AID 624467)
Conditions: CHO RD-HGA16 TAAR1, Fluo-8 calcium fluorescence; at 3 µM; hits give high values; vehicle wells 0%, saturating PEA agonist 100%

Structure (SMILES)	activation
C(Cc1nn[nH]n1)Cc1nn[nH]n1	inactive: 8.43%
C/C(N)=N\P(=O)(OCc1ccccc1)OCc1ccccc1	inactive: 1.98%
Cc1ccc(NP(=O)(Oc2cccc(C)c2)Oc2cccc(C)c2)nc1	inactive: 1.46%
c1ccc(-c2nn[nH]n2)c(-c2nn[nH]n2)c1	inactive: 2.09%
CCNC(=S)/N=C(\N)N[N+](=O)[O-]	inactive: 7.19%
O=C(NC1CCS(=O)(=O)C1)NP(=S)(Oc1ccccc1)Oc1ccccc1 (stereo not drawn)	inactive: -0.86%
O=P1(N(CCCl)CCCl)OCCC2CCCCN21 (stereo not drawn)	inactive: 0.65%
CCC(=O)N1C2C3N(C(=O)CC)C1C1N(C(=O)CC)C(C(N1C(=O)CC)N3C(=O)CC)N2C(=O)CC	inactive: 15.4%
O=C(OC1CN2CCC1CC2)c1ccccc1 (stereo not drawn)	inactive: -0.42%
Cc1ccc(OP(=O)(Nc2ccccn2)Oc2ccc(C)cc2)cc1	inactive: 9.16%
CC(=O)NC(SC(=S)N(CC(C)C)CC(C)C)C(Cl)(Cl)Cl (stereo not drawn)	inactive: 0.78%
COC(=O)c1cc2c(s1)N=C(c1ccccc1)N(C)P2(=O)N1CCOCC1 (stereo not drawn)	inactive: -0.83%
CN(C)C(=O)Oc1noc2ccccc12	inactive: 3.52%
O=c1c2cc([N+](=O)[O-])ccc2[nH]c2c([N+](=O)[O-])cc([N+](=O)[O-])cc12	inactive: 19%
Cc1ccccc1OP(=O)(Nc1ccccn1)Oc1ccccc1C	inactive: 7.28%
CC(NC(=O)COC(=O)C(O)(c1ccccc1)c1ccccc1)c1ccccc1 (stereo not drawn)	inactive: 9.07%
CCOc1ccc(C2=NCC(CBr)S2)cc1 (stereo not drawn)	inactive: -0.24%
O=P1(Nc2nc3ccc(Cl)cc3s2)COc2ccccc2O1 (stereo not drawn)	inactive: 5.07%
CC(C)(C)C(=O)NC(Sc1ccccc1)C(Cl)(Cl)Cl (stereo not drawn)	inactive: 17.5%
CCc1cc(O)c([N+](=O)[O-])c(C)c1[N+](=O)[O-]	inactive: 4.98%
C[C@@H]1C=CCP(=O)(Oc2ccccc2)O1 (stereo partly drawn)	inactive: 3.6%
C[C@H]1OP(=O)(Oc2ccccc2)C[C@@H]2O[C@@H]21 (stereo partly drawn)	inactive: 9.05%
Cc1ccccc1CN(C)C(=O)COC(=O)C(O)(c1ccccc1)c1ccccc1	inactive: 5.64%
COC(=O)C1(C)COP(=O)(NCc2ccccc2)OC1 (stereo not drawn)	inactive: 2.08%
N#C/C(=C\c1ccc(N(CCBr)CCBr)cc1)C(N)=O	inactive: 0%

Structure (SMILES)	activation
CC(=O)c1ccc(N2CC2c2ccncc2)cc1 (stereo not drawn)	inactive: 1.52%
CC(=O)Nc1ccc(Oc2c([N+](=O)[O-])cc([N+](=O)[O-])cc2[N+](=O)[O-])cc1	inactive: 6.22%
CC(=O)Nc1ccc([As](=O)(O)O)c(O)c1	inactive: 2.98%
Cc1ccc(N/C(=N/P(=O)(N2CCOCC2)N2CCOCC2)N2CCOCC2)cc1	inactive: 9.06%
CN(C(=O)Cc1ccc(Cl)c(Cl)c1)[C@H]1CCCC[C@H]1N1CCCC1	inactive: 1.28%
NC(=O)c1cc([N+](=O)[O-])cc([N+](=O)[O-])c1N	inactive: 3.13%
Clc1ccc(Cl)c(NC2=NCC(CBr)S2)c1 (stereo not drawn)	inactive: 2.65%
CN1CCCC(OC(=O)C(c2ccccc2)c2ccccc2)C1 (stereo not drawn)	inactive: 5.41%
Cc1ccc(OP(=O)(Nc2nccs2)Oc2ccc(C)cc2)cc1	inactive: 4.5%
COc1ccccc1OP(=O)(Nc1ccc(C)cn1)Oc1ccccc1OC	inactive: 14.3%
O=C(NC(Sc1ccncn1)C(Cl)(Cl)Cl)c1ccccc1 (stereo not drawn)	inactive: 0.59%
Oc1ccccc1CNc1ccccn1	inactive: 4.54%
CC(C)CC(=O)NC(Sc1ccc(Cl)cc1)C(Cl)(Cl)Cl (stereo not drawn)	inactive: 14.1%
Nc1cc(N)c2nonc2c1[N+](=O)[O-]	inactive: 0.62%
CN(C)P(=O)(N(C)C)n1c(Nc2ccccc2)nnc1-c1ccccc1	inactive: 3.34%
O=P(Nc1nc2ccc(Cl)cc2s1)(c1ccccc1)c1ccccc1	inactive: 5.27%
CCCC1OP(N)(=O)OCC1CC (stereo not drawn)	inactive: 1.54%
O=C(O)c1ccccc1[As](=O)(O)O	inactive: -0.64%
CC(=O)Nc1ccc([As](=O)(O)O)cc1	inactive: 0.58%
CCn1c(=O)n(C2CCN(CC3CCCCCCC3)C[C@H]2CO)c2ccccc21 (stereo partly drawn)	inactive: -0.34%
Cc1ccc(NP(=O)(Oc2ccccc2F)Oc2ccccc2F)nc1	inactive: 2.01%
CN(C(=O)Cc1ccc(Cl)c(Cl)c1)[C@H]1CCCC[C@@H]1N1CCCC1	inactive: 1.89%
CCOP(=O)(Nc1ccccc1)OCC	inactive: -0.42%
Cc1cc(SC(NC(=O)c2ccc(F)cc2)C(Cl)(Cl)Cl)ncn1 (stereo not drawn)	inactive: 2.83%
Nc1cccc2ccc([As](=O)(O)O)cc12	inactive: 4.2%

Structure (SMILES)	activation
CCN(N=Nc1nonc1N)c1nonc1N	inactive: -0.52%
CN(C(=O)Cc1ccccc1)C1CC[C@@]2(CCCO2)C[C@@H]1N1CCCC1 (stereo partly drawn)	inactive: 0.26%
O=P1(N(CCCl)CCCl)OCCCS1 (stereo not drawn)	inactive: 0.72%
O=C(Nc1cc([As](=O)(O)O)ccc1O)c1ccccc1	inactive: 0.72%
O=[N+]([O-])c1ncn(CCn2ncnc2[N+](=O)[O-])n1	inactive: 7.04%
CC(C)(C)C(=O)NC(Sc1ccncn1)C(Cl)(Cl)Cl (stereo not drawn)	inactive: -0.7%
O=C(O)CNc1ccc([As](=O)(O)O)cc1	inactive: -0.29%
O=[N+]([O-])c1cccc(NC2=NCC(CBr)S2)c1 (stereo not drawn)	inactive: 3.02%
COC(=O)C1(C)COP(=O)(Nc2ccccc2)OC1 (stereo not drawn)	inactive: 2.02%
COc1ccc(C2=NCC(CBr)S2)cc1 (stereo not drawn)	inactive: 7.95%
CCc1nc2c(n1)c1c(non1O)c1c2no[n+]1[O-]	inactive: 17.3%
O=[N+]([O-])c1cc([N+](=O)[O-])c(CCNc2ccccc2)c([N+](=O)[O-])c1	inactive: -1.54%
Cc1ccc(NP(=O)(Oc2ccccc2)Oc2ccccc2)nc1	inactive: -2.28%
O=[N+]([O-])c1cccc2n[nH]nc12	inactive: 18.1%
CC(=O)N1C2C3N(C(C)=O)C1C1N(C(C)=O)C(C(N1C(C)=O)N3C(C)=O)N2C(C)=O	inactive: 7.1%
CCN(/C(=N/P(=O)(N1CCOCC1)N1CCOCC1)N1CCOCC1)c1ccc(OC)cc1	inactive: 1.4%
C[N+]1=C2C=CC=CC=C2SC12C([N+](=O)[O-])=CC([N+](=O)[O-])=C[C-]2[N+](=O)[O-] (stereo not drawn)	inactive: 5.78%
Nc1ccc([As](=O)(O)c2ccc(N)cc2)cc1	inactive: 1.36%
c1cc(-c2nn[nH]n2)ccc1-c1nn[nH]n1	inactive: -0.59%
CC1CCN(C(=O)Oc2c(Cl)cc(Cl)c3cccnc23)CC1	inactive: 25.4%
CN(C)C(=O)OCCc1n(C)cc[n+]1C	inactive: 0.16%
CC(C)=N/N=C(\N)N[N+](=O)[O-]	inactive: 0.66%
CC(C)c1nc(Nc2ccccc2)n(P(=O)(N(C)C)N(C)C)n1	inactive: 9.53%
